The values that follow are results of earlier work, collected in PMC5651683.

The chains behind the UniProt entries cited, without tags or fusion partners. Residues count along the entry.
UniProt Q16623, 1-20: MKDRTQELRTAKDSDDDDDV

The data set addresses syntaxin N-peptide N-peptide motif (UniProt Q16623).

In the case of Munc18a (from UniProt P61764), the Kd is more than 31 µM.
